This is an account of results in PubChem BioAssay AID701 (PCMD, 2007).

By UniProt entry, the sequences of proteins in these tests, tags left out. Residues count along the entry.
UniProt P00748, 20-372 limits assumed: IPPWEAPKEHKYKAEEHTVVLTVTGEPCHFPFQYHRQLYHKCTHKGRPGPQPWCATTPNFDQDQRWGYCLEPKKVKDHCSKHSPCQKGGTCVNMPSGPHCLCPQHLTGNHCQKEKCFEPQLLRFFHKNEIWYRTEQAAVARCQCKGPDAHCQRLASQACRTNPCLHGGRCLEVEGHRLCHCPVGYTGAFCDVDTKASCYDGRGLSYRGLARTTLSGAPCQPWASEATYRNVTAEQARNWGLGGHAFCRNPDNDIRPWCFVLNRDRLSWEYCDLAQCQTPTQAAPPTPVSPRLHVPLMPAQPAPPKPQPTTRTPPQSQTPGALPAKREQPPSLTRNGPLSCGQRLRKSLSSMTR
UniProt P00748, 373-615 limits assumed: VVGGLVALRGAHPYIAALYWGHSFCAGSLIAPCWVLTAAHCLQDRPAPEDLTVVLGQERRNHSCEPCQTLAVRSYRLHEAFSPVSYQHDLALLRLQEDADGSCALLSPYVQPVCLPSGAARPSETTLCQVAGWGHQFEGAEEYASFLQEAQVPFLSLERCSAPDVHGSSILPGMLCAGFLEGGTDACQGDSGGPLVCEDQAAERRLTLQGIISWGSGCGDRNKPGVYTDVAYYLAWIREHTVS

The entries are a selection whose mix differs from that of the whole data set. The source made the active and inactive calls. Rule as the data show it: active = inhibition above about 30%; inactive = the rest.

The experiment deals with Coagulation factor XII (Homo sapiens) (UniProt P00748). Briefly: human FXIIa protease inhibitors, primary screen, biochemical, single well (AID 701).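 Also: 0% = enzyme with vehicle only and 100% = no enzyme blank.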 Conditions: purified human FXIIa, AMC substrate fluorescence, 2 h; at 10 µM; hits give high values.
With `CP(=O)(Nc1ccccn1)Oc1ccc(Cl)cc1` (stereo not given), the inhibition was inactive: -1.94%. The value for `COc1ccc(OP(C)(=O)Nc2cccc(F)c2)cc1` (stereo not given) was inactive: 7.63%; that for `Cc1cc(C)cc(OP(C)(=O)Nc2ccc(C)cc2C)c1` (stereo not given) was inactive: -7.56%; that for `Cc1cc(C)cc(OP(C)(=O)Nc2ccccn2)c1` (stereo not given) was inactive: 6.23%. The result for `COc1ccccc1OP(C)(=O)Nc1c(C)cccc1C` (stereo not given) reads inactive: 2.42%; that for `CP(=O)(Nc1ccccc1)Oc1ccc(F)cc1` (stereo not given), inactive: 9.51%; that for `CCN(CC)CCCOC(=O)C(O)(c1ccccc1)C1CCCCC1` (stereo not given), inactive: 0.09%. For `CN(C)CCOC(=O)C(O)(c1ccccc1)C1CCCC1` (stereo not given), the inhibition is inactive: -1.33%. As for `COc1ccc(OP(C)(=O)Nc2ccccn2)cc1` (stereo not given), the inhibition was inactive: -1.23%. As for `CCc1ccc(OP(C)(=O)O)cc1`, the inhibition is inactive: 4.32%. The result for `COc1ccccc1OP(C)(=O)Nc1ccc(C)cc1C` (stereo not given) reads inactive: 5.74%; that for `Cc1c(NP(C)(=O)Oc2ccc(C(C)C)cc2)c(=O)n(-c2ccccc2)n1C` (stereo not given), inactive: 7.88%.

For the compound `CP(=O)(OC12CC3CC(CC(C3)C1)C2)OC12CC3CC(CC(C3)C1)C2`, the inhibition was inactive: 2.56%. As to `CP(=O)(Nc1ccc(Cl)cc1)Oc1ccc(F)cc1` (stereo not given), the inhibition is inactive: -10.4%.

Regarding `CC(C)(C)c1ccc(OP(C)(=O)O)cc1`, the inhibition is inactive: -4.54%.
